Experimental findings from ChEMBL document CHEMBL1921707 (J Med Chem, 2011) are described below.

Chains of the proteins cited; added tags and fusions are not shown. Lines headed by an entry give the natural chain unless they say otherwise; changes in a name come on top.
UniProt Q9Y5N1: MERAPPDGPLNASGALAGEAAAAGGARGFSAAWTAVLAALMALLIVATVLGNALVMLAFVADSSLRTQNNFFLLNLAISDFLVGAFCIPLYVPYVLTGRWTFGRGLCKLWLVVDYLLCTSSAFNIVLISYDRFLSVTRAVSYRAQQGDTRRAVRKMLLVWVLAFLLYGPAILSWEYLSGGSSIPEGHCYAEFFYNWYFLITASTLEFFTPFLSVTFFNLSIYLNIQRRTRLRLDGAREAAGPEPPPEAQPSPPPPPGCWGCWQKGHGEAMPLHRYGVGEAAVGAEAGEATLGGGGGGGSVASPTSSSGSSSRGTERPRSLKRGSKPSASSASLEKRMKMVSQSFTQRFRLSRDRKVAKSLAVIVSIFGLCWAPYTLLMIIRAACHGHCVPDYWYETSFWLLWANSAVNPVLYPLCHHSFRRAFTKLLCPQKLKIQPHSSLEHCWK

The experiment deals with Histamine H3 receptor (Homo sapiens, UniProt Q9Y5N1). In words: Displacement of [3H]histamine from human H3 receptor expressed in HEK293 cells after 1 to 1.5 hrs by scintillation counting. Format: cell-based.

Compound `NC(=NCc1ccc(Cl)cc1)SCCCc1cnc[nH]1` [CLOBENPROPIT] showed an inhibition constant Ki of 2.82 nM.
